Literature values as cited in patent publication US20240124524A1, “Agonist of Tacr2” (University of Copenhagen, priority 2019, published 2024).

Amino acid sequences for entries named in this document (tags omitted).
UniProt P21452, whole entry: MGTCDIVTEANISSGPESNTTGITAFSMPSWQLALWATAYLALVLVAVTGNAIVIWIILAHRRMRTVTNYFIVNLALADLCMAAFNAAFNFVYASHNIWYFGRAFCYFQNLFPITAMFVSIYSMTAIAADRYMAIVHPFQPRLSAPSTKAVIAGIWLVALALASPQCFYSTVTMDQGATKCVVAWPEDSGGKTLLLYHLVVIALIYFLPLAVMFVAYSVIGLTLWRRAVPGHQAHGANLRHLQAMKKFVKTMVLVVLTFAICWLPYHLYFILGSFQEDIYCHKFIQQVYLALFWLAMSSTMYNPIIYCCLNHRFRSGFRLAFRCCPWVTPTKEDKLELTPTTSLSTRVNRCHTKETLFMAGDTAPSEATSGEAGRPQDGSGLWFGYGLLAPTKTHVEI

Molecular target: Tacr2 (Homo sapiens, UniProt P21452)
Settings: Sp Hs; cited from earlier work

For [Phe(Me)7]neurokinin B, the Affinity is listed as 6.9 pKi.
